# Only a part is listed here, and it is no random draw. Calls of active or inactive are those of the source.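 Rule for the calls: active = percent activation above the mean of all tested compounds plus 3 SD (cut at about 19% in these data); inactive = the rest.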
# Chains of the proteins cited; added tags and fusions are not shown.
# UniProt P00514, whole entry, looked up: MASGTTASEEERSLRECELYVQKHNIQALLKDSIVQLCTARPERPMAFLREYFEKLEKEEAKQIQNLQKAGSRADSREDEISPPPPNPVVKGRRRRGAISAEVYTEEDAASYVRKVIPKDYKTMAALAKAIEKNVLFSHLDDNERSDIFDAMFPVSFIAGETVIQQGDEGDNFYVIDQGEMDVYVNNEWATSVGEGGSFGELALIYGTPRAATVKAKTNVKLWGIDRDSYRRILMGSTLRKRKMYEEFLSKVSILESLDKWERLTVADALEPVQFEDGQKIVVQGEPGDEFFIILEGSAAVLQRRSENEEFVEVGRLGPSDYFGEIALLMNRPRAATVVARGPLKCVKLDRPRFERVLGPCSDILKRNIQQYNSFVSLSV
# Molecular target: cAMP-dependent protein kinase type I-alpha regulatory subunit (Bos taurus) + cAMP-dependent protein kinase catalytic subunit beta (Mus musculus) (UniProt P00514+P68181)
# Experiment: activators of PKA-R1A holoenzyme, primary screen, biochemical, fluorescence polarization, Cy5-IP20, bovine R1A, mouse PKAc (AID 504707);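 note: higher means more PKAc released from R1A so a rise in polarization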
# Details: PKA-R1A dissociation, at 11.4 µM, stronger effect = higher value, scaled: DMSO 0%, 113 µM cGMP 100%
row,Compound,activation
1,CCN(/C(=N/P(=O)(N1CCOCC1)N1CCOCC1)N1CCOCC1)c1ccc(OC)cc1,inactive: 1.16%
2,C[N+]1=C2C=CC=CC=C2SC12C([N+](=O)[O-])=CC([N+](=O)[O-])=C[C-]2[N+](=O)[O-] (configuration not stated),inactive: 3.22%
3,Nc1ccc([As](=O)(O)c2ccc(N)cc2)cc1,inactive: -3.42%
4,CC1CCN(C(=O)Oc2c(Cl)cc(Cl)c3cccnc23)CC1,inactive: -1.62%
5,c1cc(-c2nn[nH]n2)ccc1-c1nn[nH]n1,inactive: -1.76%
6,CN(C)C(=O)OCCc1n(C)cc[n+]1C,inactive: 1.63%
7,CC(C)c1nc(Nc2ccccc2)n(P(=O)(N(C)C)N(C)C)n1,inactive: -1.42%
8,CC(C)=N/N=C(\N)N[N+](=O)[O-],inactive: -3.01%
9,COc1ccc(C2=NCC(CBr)S2)cc1 (configuration not stated),inactive: -1.44%
10,O=[N+]([O-])c1cc([N+](=O)[O-])c(CCNc2ccccc2)c([N+](=O)[O-])c1,inactive: 4.69%
11,CCc1nc2c(n1)c1c(non1O)c1c2no[n+]1[O-],inactive: -2.97%
12,Cc1ccc(NP(=O)(Oc2ccccc2)Oc2ccccc2)nc1,inactive: -0.28%
13,CC(=O)N1C2C3N(C(C)=O)C1C1N(C(C)=O)C(C(N1C(C)=O)N3C(C)=O)N2C(C)=O,inactive: -8.69%
14,O=[N+]([O-])c1cccc2n[nH]nc12,inactive: 4.78%
15,O=[N+]([O-])c1ncn(CCn2ncnc2[N+](=O)[O-])n1,inactive: -1.25%
16,CC(C)(C)C(=O)NC(Sc1ccncn1)C(Cl)(Cl)Cl (configuration not stated),inactive: -2.24%
17,O=C(O)CNc1ccc([As](=O)(O)O)cc1,inactive: 3.2%
18,COC(=O)C1(C)COP(=O)(Nc2ccccc2)OC1 (configuration not stated),inactive: -7.61%
19,O=[N+]([O-])c1cccc(NC2=NCC(CBr)S2)c1 (configuration not stated),inactive: -4.14%
20,O=P1(N(CCCl)CCCl)OCCCS1 (configuration not stated),inactive: -4.94%
21,O=C(Nc1cc([As](=O)(O)O)ccc1O)c1ccccc1,inactive: -3.44%
22,Nc1cccc2ccc([As](=O)(O)O)cc12,inactive: -3.61%
23,CCN(N=Nc1nonc1N)c1nonc1N,inactive: 3.34%
24,O=P(Nc1nc2ccc(Cl)cc2s1)(c1ccccc1)c1ccccc1,inactive: -9.29%
25,CN(C)P(=O)(N(C)C)n1c(Nc2ccccc2)nnc1-c1ccccc1,inactive: -4.83%
26,CCCC1OP(N)(=O)OCC1CC (configuration not stated),inactive: 8.14%

row,Compound,activation
1,CC(=O)Nc1ccc([As](=O)(O)O)cc1,inactive: -9.94%
2,O=C(O)c1ccccc1[As](=O)(O)O,inactive: -12.3%
3,CN(C(=O)Cc1ccc(Cl)c(Cl)c1)[C@H]1CCCC[C@@H]1N1CCCC1,inactive: -2.51%
4,Cc1ccc(NP(=O)(Oc2ccccc2F)Oc2ccccc2F)nc1,inactive: -8.22%
5,Cc1cc(SC(NC(=O)c2ccc(F)cc2)C(Cl)(Cl)Cl)ncn1 (configuration not stated),inactive: -3.97%
6,CCOP(=O)(Nc1ccccc1)OCC,inactive: -0.86%
7,O=C(NC(Sc1ccncn1)C(Cl)(Cl)Cl)c1ccccc1 (configuration not stated),inactive: -9.55%
8,Oc1ccccc1CNc1ccccn1,inactive: 5.06%
9,Nc1cc(N)c2nonc2c1[N+](=O)[O-],inactive: -1.28%
10,CC(C)CC(=O)NC(Sc1ccc(Cl)cc1)C(Cl)(Cl)Cl (configuration not stated),inactive: -10.9%
11,Cc1ccc(N/C(=N/P(=O)(N2CCOCC2)N2CCOCC2)N2CCOCC2)cc1,inactive: -16.6%
12,CN(C(=O)Cc1ccc(Cl)c(Cl)c1)[C@H]1CCCC[C@H]1N1CCCC1,inactive: -5.87%
13,NC(=O)c1cc([N+](=O)[O-])cc([N+](=O)[O-])c1N,inactive: 3.23%
14,CN1CCCC(OC(=O)C(c2ccccc2)c2ccccc2)C1 (configuration not stated),inactive: -1.96%
15,Clc1ccc(Cl)c(NC2=NCC(CBr)S2)c1 (configuration not stated),inactive: -8.24%
16,COc1ccccc1OP(=O)(Nc1ccc(C)cn1)Oc1ccccc1OC,inactive: -3.21%
17,C[C@H]1OP(=O)(Oc2ccccc2)C[C@@H]2O[C@@H]21 (some centres not stated),inactive: -11.9%
18,C[C@@H]1C=CCP(=O)(Oc2ccccc2)O1 (some centres not stated),inactive: -0.72%
19,Cc1ccccc1CN(C)C(=O)COC(=O)C(O)(c1ccccc1)c1ccccc1,inactive: -2.65%
20,COC(=O)C1(C)COP(=O)(NCc2ccccc2)OC1 (configuration not stated),inactive: -4.98%
21,CC(=O)c1ccc(N2CC2c2ccncc2)cc1 (configuration not stated),inactive: -5.22%
22,N#C/C(=C\c1ccc(N(CCBr)CCBr)cc1)C(N)=O,inactive: 5.95%
23,CC(=O)Nc1ccc(Oc2c([N+](=O)[O-])cc([N+](=O)[O-])cc2[N+](=O)[O-])cc1,inactive: 3.14%
24,CC(=O)Nc1ccc([As](=O)(O)O)c(O)c1,inactive: -9.26%
25,CCOc1ccc(C2=NCC(CBr)S2)cc1 (configuration not stated),inactive: 0.78%
26,O=P1(Nc2nc3ccc(Cl)cc3s2)COc2ccccc2O1 (configuration not stated),inactive: 0.95%

row,Compound,activation
1,CC(C)(C)C(=O)NC(Sc1ccccc1)C(Cl)(Cl)Cl (configuration not stated),inactive: -11.7%
2,CCc1cc(O)c([N+](=O)[O-])c(C)c1[N+](=O)[O-],inactive: 8.44%
3,CCC(=O)N1C2C3N(C(=O)CC)C1C1N(C(=O)CC)C(C(N1C(=O)CC)N3C(=O)CC)N2C(=O)CC,inactive: 6.65%
4,O=C(OC1CN2CCC1CC2)c1ccccc1 (configuration not stated),inactive: 3.91%
5,CC(=O)NC(SC(=S)N(CC(C)C)CC(C)C)C(Cl)(Cl)Cl (configuration not stated),inactive: -0.76%
6,Cc1ccc(OP(=O)(Nc2ccccn2)Oc2ccc(C)cc2)cc1,inactive: -8.68%
7,COC(=O)c1cc2c(s1)N=C(c1ccccc1)N(C)P2(=O)N1CCOCC1 (configuration not stated),inactive: 10%
8,O=c1c2cc([N+](=O)[O-])ccc2[nH]c2c([N+](=O)[O-])cc([N+](=O)[O-])cc12,inactive: -8.83%
9,CN(C)C(=O)Oc1noc2ccccc12,inactive: -4.44%
10,CC(NC(=O)COC(=O)C(O)(c1ccccc1)c1ccccc1)c1ccccc1 (configuration not stated),inactive: 8.36%
11,Cc1ccccc1OP(=O)(Nc1ccccn1)Oc1ccccc1C,inactive: -0.92%
12,O=C(NC1CCS(=O)(=O)C1)NP(=S)(Oc1ccccc1)Oc1ccccc1 (configuration not stated),inactive: -16.2%
13,CCNC(=S)/N=C(\N)N[N+](=O)[O-],inactive: 0.73%
14,O=P1(N(CCCl)CCCl)OCCC2CCCCN21 (configuration not stated),inactive: -17%
15,O=[As](O)(c1ccccc1)c1ccc(O)cc1,inactive: -13%
16,CC(=O)NC(SC(=S)N(C)C)C(Cl)(Cl)Cl (configuration not stated),inactive: 3.93%
17,O=[N+]([O-])c1ncn(CCn2cnc([N+](=O)[O-])n2)n1,inactive: -6.9%
18,O=[N+]([O-])c1ccc(O)c(/C=N/Nc2ccc([N+](=O)[O-])cc2[N+](=O)[O-])c1,inactive: 9.71%
19,O=C(OC1CN2CCC1CC2)c1cccc(Cl)c1 (configuration not stated),inactive: -0.13%
20,C(Cc1nn[nH]n1)Cc1nn[nH]n1,inactive: -7.71%
21,Nc1ccc([As](=O)(O)c2ccc([N+](=O)[O-])cc2)cc1,inactive: 6.3%
22,CN(C)C1(CNC(=O)c2ccc(Cl)c(S(N)(=O)=O)c2)CCCCC1,inactive: -19.7%
23,O=P(Nc1ccccn1)(c1ccc(Br)cc1)c1ccc(Br)cc1,inactive: -4.94%
24,COc1ccc(N)c([N+](=O)[O-])c1[N+](=O)[O-],inactive: 13%
25,C[C@H]1OP(=O)(Oc2ccccc2)[C@H](O)[C@H](O)[C@H]1N=[N+]=[N-] (some centres not stated),inactive: -10.1%
26,O=P(Nc1nc2ccccc2s1)(c1ccccc1)c1ccccc1,inactive: 5.42%

row,Compound,activation
1,O=P(Nc1nccs1)(c1ccccc1)c1ccccc1,inactive: -3.91%
2,CC(C)C(=O)NC(Sc1ccccc1)C(Cl)(Cl)Cl (configuration not stated),inactive: -16.5%
3,c1nnnn1CCn1cnnn1,inactive: 3.52%
4,COc1ccccc1CNC(=O)COC(=O)C(O)(c1ccccc1)c1ccccc1,inactive: -7.64%
5,CN(C(=O)Cc1ccc(Cl)c(Cl)c1)[C@@H]1CCCC[C@H]1N1CCCC1,inactive: 8.01%
6,CC(C)/C=N\N=C(\N)N[N+](=O)[O-],inactive: -7.75%
7,CC1(CBr)Cn2c(nc3ccccc3c2=O)S1 (configuration not stated),inactive: -12.4%
8,CCOP(=O)(NC(=NC(C)c1ccccc1)NC(C)c1ccccc1)OCC (configuration not stated),inactive: 13.2%
9,CCC1=CC2Cc3nc4ccc(Cl)cc4c(N)c3C(C1)C2 (configuration not stated),inactive: -5.69%
10,O=P1(Nc2ccccn2)COc2ccccc2OC1,inactive: 2.27%
11,CCOP(=O)(Nc1ccc(C)cn1)OCC,inactive: -2.89%
12,CC(C)(C)C(=O)NC(Sc1ncccn1)C(Cl)(Cl)Cl (configuration not stated),inactive: 0.17%
13,Clc1n[nH]nc1-c1nn[nH][15n]1,inactive: -0.38%
14,O=P1(N(CCCl)CCCl)NCCC(C(F)(F)F)O1 (configuration not stated),inactive: 12.7%
15,O=P1(Nc2ncccn2)COc2ccccc2OC1,inactive: -4.56%
16,Nc1cccc([As](=O)(O)c2ccccc2)c1,inactive: 0.87%
17,Cc1ccc(OCC(=O)OC2CN3CCC2CC3)cc1 (configuration not stated),inactive: -14.1%
18,O=[As](O)(c1cccs1)c1cccs1,inactive: -0.49%
19,NS(=O)(=O)c1cccc(NC(=O)COC(=O)C(O)(c2ccccc2)c2ccccc2)c1,inactive: -3.02%
20,O=P1(Nc2ccc(Br)cn2)COc2ccccc2OC1,inactive: 4.91%
21,Cc1ccc(C(=O)OC2CN3CCC2CC3)cc1 (configuration not stated),inactive: 0.28%
22,CC1CCC(C(C)C)C(OP(=O)(Nc2ccccn2)c2ccccc2)C1 (configuration not stated),inactive: -19.3%
23,Cc1nn(-c2ccccc2)c2c1P(=O)(N1CCOCC1)N(C)C(c1ccccc1)=N2 (configuration not stated),inactive: -2.05%
24,CN(C)C1(CNC(=O)c2ccc(S(C)(=O)=O)cc2)CCCCC1,inactive: -11%
